Assay: in vivo
Settings: mouse
Procedure: By using male ddY-strain 5-week old mice (3 to 4 per group), the compounds of general formula (1) were each administered orally or intraperitoneally as a solution in saline or as a suspension in methyl cellulose, and 24 hours after the administration, the toxicity of the compounds was evaluated.

SMILES: CCCCCCC[N+](CC)(CC)CCCCc1ccc(Cl)cc1 [Clofilium, reference compound]
- LD50 at 24 h (ip): ~30 mg/kg
- LD50 at 24 h (po): > 1000 mg/kg
